Experimental data reported in patent US10858688.

Target: focal adhesion in fixed and permeabilized Xenopus laevis XTC cells (Xenopus laevis)
Test: single-molecule speckle (SiMS) TIRF imaging of EGFP-fused probe (cell lysate) on fixed, permeabilized XTC cells; exponential fit of speckle lifetimes

Row | Substance | half-life [s]
1 | Src fragment (amino acid residues 1-251 of sequence number 16), EGFP-3xFLAG fused at the C terminus | 0.161
2 | Src fragment (amino acid residues 3-251 of sequence number 16), EGFP-3xFLAG fused at the C terminus | 0.141
